{
  "source": "patent US8530494B2",
  "about": "(priority 2008, dated 2013)",
  "system": "rats",
  "conditions": "rat, in vivo",
  "data": [
    {"compound": "CN1CC[C@]23c4c5ccc(O)c4O[C@H]2[C@@H](O)C=C[C@H]3[C@H]1C5", "note": "[Morphine, morphine]", "values": [
      {"measurement": "carbon dioxide in blood samples", "value": "significantly increased"}
    ]}
  ]
}
